# According to PubChem BioAssay AID795 (NMMLSC, 2007):
# Only a part is listed here, and it is no random draw. Activity calls are given as the source filed them.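 The calls were made as follows: active = side scatter shift above 30%; inactive = the rest.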
# Experiment: activators of LNCaP prostate cell differentiation, primary screen, flow cytometry side scatter (AID 795);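 also: androgen-responsive LNCaP prostate cancer cells in charcoal-stripped serum medium; percent of cells past a gate set so DMSO wells show 10% shift; higher shift means more granular cells and more differentiation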
# Conditions: 4 d, at 10 µM, active compounds read high
row,Structure (SMILES),side scatter shift
1,Cc1ccccc1NP(C)(=O)Nc1ccccc1C,inactive: 12%
2,CP(=O)(Nc1ccc2c(c1)OCCO2)Oc1ccccc1 (configuration not stated),inactive: 9%
3,CN(C)CCOC(=O)C(O)(c1ccccc1)C1CCCCC1 (configuration not stated),inactive: 9%
4,CP(=O)(Nc1ccccn1)Oc1ccccc1 (configuration not stated),inactive: 1%
5,Cc1nc2ccc3ccccc3c2o1.O=[N+]([O-])c1cc([N+](=O)[O-])c(O)c([N+](=O)[O-])c1,inactive: 14%
6,CP(=S)(Nn1cnnc1)Oc1ccccc1 (configuration not stated),inactive: 6%
7,Cc1ccc(C)c(NP(C)(=O)Oc2ccccc2)c1 (configuration not stated),inactive: 5%
